A selection: hits, their analogues and other compounds. The true share with any hit is near 2.1%.
GSIS activator: GLuc luminescence reporter in INS-1E cells, primary screen for activators of glucose-dependent secretion of insulin; INS-1E GLuc reporter insulin secretion, 2-3 h; activation, % at 16.6 µM; 370,000 tested, 0.61% active;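 active = lowest replicate activation of at least 40%, so every replicate reaches that level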;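 note: 0% = median of neutral control wells and 100% = median of IBMX positive control wells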
ERp5 block: inhibitors of human ERp5 | 350,000 tested, 0.05% active | ERp5 insulin aggregation, absorbance 650 nm, 90 min | Q15084 | inhibition, % at 9.99 µM;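 active = mean replicate inhibition above about 25%, with every replicate also reaching it, limit read from the data, passing the limit was not always enough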
PDI inh: inhibitors of human protein disulfide isomerase | 350,000 tested, 0.052% active | PDI insulin aggregation turbidity, A650, 90 min | inhibition, % at 10 µM | P07237 | AID 588391;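 active = mean inhibition across replicates of 30% or more, whatever share of single replicates reach that level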
Yeast UUG start: modulators of yeast start codon fidelity, primary screen, whole organism, S. cerevisiae, single point, plate reader; S. cerevisiae UUG-firefly luciferase reporter, luminescence/redox ratio; activity score, % at 18.7 µM; 0.13% of 350,000 active; AID 602363, 2012;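 active = replicate mean at a twofold rise or more, about +100% in these data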;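 also: firefly luciferase made from a UUG start codon reports start codon fidelity; reporter light over untreated wells divided by growth signal over untreated wells; some hits fall short of that in this replicate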
SMARCA2 activ: SMARCA2 function activation, primary screen; MG213 cells, MMTV-luciferase reporter, dexamethasone, overnight; activation, % at 9.1 µM; 370,000 tested, 1% active; AID 652017; in the data active = activation above about 7.8%;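 note: 0% = vehicle wells and 100% = reference activator wells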
NR1D1 modulator: Rev-erb alpha (human) modulation; activity, % at 10 µM; 370,000 tested, 0.79% active; AID 1259318; Rev-erbα–FITC-DNA binding, fluorescence polarization, 90 min;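 active = activity above about 14%, limit read from the data; passing the limit was not always enough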;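 note: 0% = DMSO wells with 35 nM protein and 100% = DMSO wells with 750 nM protein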
Starred values were filed as active, the others as inactive; . = not tested or not shown; ! = repeats disagree.

1	Cc1nc(S(=O)(=O)Cc2ccc(Cl)cc2)nc2c1CCC2
2	Cc1nc(N)nc2c1CCCC2
3	COc1ccc(-n2c(SCC(=O)Nc3ccc(C(=O)O)cc3)nnc2-c2cccs2)cc1
4	COc1ccc(C(=O)CSc2nnc(-c3cccs3)n2-c2ccccc2)cc1
5	O=C(CSc1nc2nn(-c3ccccc3)c(=O)c-2c2n1CCCCC2)c1ccc(O)c(O)c1
6	C[C@H](CO)N1C[C@H](C)[C@H](CN(C)CC2CC2)Oc2cc(C#Cc3ccc(F)cc3)ccc2S1(=O)=O
7	C[C@@H]1CN([C@H](C)CO)C(=O)c2cc(NS(C)(=O)=O)ccc2O[C@@H](C)CCCCO[C@@H]1CN(C)C(=O)NC1CCCCC1
8	COC(=O)c1nc(Cl)c(Cl)c(N)c1Cl

screen / no. | 1 | 2 | 3 | 4 | 5 | 6 | 7 | 8
GSIS activator | -1 | 43* | . | 46* | . | -5 | 15 | 66
ERp5 block | 1 | . | . | . | . | 0 | . | -3
PDI inh | -1 | 1 | 1 | -6 | 53* | . | . | 2
Yeast UUG start | -18 | -21 | -18 | 3 | -13 | 8 | . | .
SMARCA2 activ | 0 | -1 | -3 | 2 | . | . | . | -2
NR1D1 modulator | -5 | -4 | -1 | 9 | . | . | . | -4

Quoted at random: two entries already listed
8	COC(=O)c1nc(Cl)c(Cl)c(N)c1Cl
1	Cc1nc(S(=O)(=O)Cc2ccc(Cl)cc2)nc2c1CCC2

screen / no. | 8 | 1
GSIS activator | 66 | -1
ERp5 block | -3 | 1
PDI inh | 2 | -1
Yeast UUG start | . | -18
SMARCA2 activ | -2 | 0
NR1D1 modulator | -4 | -5

Further records follow:
9	CCCCCCCCOC(=O)c1nc(Cl)c(Cl)c(N)c1Cl
10	O=C(O)C[C@H]1C=C[C@H](NC(=O)c2ccccc2F)[C@H](CO)O1
11	C[C@@H]1CN([C@H](C)CO)S(=O)(=O)c2ccc(C#Cc3ccc(F)cc3)cc2O[C@@H]1CN(C)C(=O)c1ccccn1
12	COc1ccc(CCNC(=O)CCC(=O)c2cccs2)cc1OC
13	CCOc1ccc(CCNC(=O)COC(=O)CCC(=O)c2cccs2)cc1OCC
14	COc1ccc(C(C)=O)cc1COC(=O)CCC(=O)c1cccs1
15	COc1ccc(CCNC(=O)COC(=O)CCC(=O)c2cccs2)cc1OC
16	CCOc1ccc(CCNC(=O)CCC(=O)c2cccs2)cc1OCC

screen / no. | 9 | 10 | 11 | 12 | 13 | 14 | 15 | 16
GSIS activator | 60* | -9 | -13 | 103* | 27 | 44* | 38 | 95*
ERp5 block | 5 | . | -3 | 0 | 3 | 6 | -8 | 6
PDI inh | 6 | . | . | -3 | 9 | -5 | -1 | -2
Yeast UUG start | -10 | . | 29 | -2 | 5 | -5 | -13 | -16
SMARCA2 activ | 2 | . | . | 1 | 4 | -3 | 1 | 0
NR1D1 modulator | -1 | . | . | 0 | 5 | 6 | 6 | -4

17	COc1ccc(NC(=O)COC(=O)CCC(=O)c2cccs2)cc1OC
18	COc1ccc(/C=N/Nc2ncnc3c2[nH]c2ccccc23)c(OC)c1OC
19	COc1cccc(/C=N/Nc2ncnc3c2[nH]c2ccc(C)cc23)c1OC
20	CCCN(C)C[C@@H]1Oc2cc(C#CCC3CCCC3)ccc2S(=O)(=O)N([C@@H](C)CO)C[C@@H]1C
21	C[C@H]1CN([C@@H](C)CO)C(=O)c2cc(-c3ccccc3)cnc2O[C@H]1CN(C)C(=O)c1ccccn1
22	CCOC(=O)c1c(NC(=O)Cn2nc(C(F)(F)F)cc2C)sc(C)c1C
23	Cc1cc2occ(CC(=O)NNC(=O)c3ccccc3)c2cc1C
24	Cc1cccc(-c2cc3nc4c(c(N5CCCC(O)C5)n3n2)CCC4)c1 (stereo not drawn)

screen / no. | 17 | 18 | 19 | 20 | 21 | 22 | 23 | 24
GSIS activator | 36 | 68* | -5 | 13 | 1 | 61* | -6 | 86*
ERp5 block | -5 | . | 1 | . | 11 | . | 66* | .
PDI inh | -2 | -9 | 1 | . | . | -6 | 5 | 10
Yeast UUG start | 10 | -10 | . | . | -12 | -4 | -8 | -9
SMARCA2 activ | -1 | 2 | -2 | . | . | -3 | 1 | 0
NR1D1 modulator | -3 | -24 | -12 | . | . | 2 | 0 | -2

25	COc1ccc(Nc2c3c(nc4ccccc24)CCC3)cc1
26	c1ccc(Nc2c3c(nc4ccccc24)CCC3)cc1
27	CC[N+]1(C)CCC(O)(c2ccc(OC)cc2)C(C(=O)c2ccc(OC)cc2)C1 (stereo not drawn)
28	CC12CCC3c4ccc(O)cc4CCC3C1CCC2=O (stereo not drawn)
29	C[C@H](CO)N1C[C@H](C)[C@H](CN(C)Cc2ccc(C(F)(F)F)cc2)Oc2c(NC(=O)Nc3cccc4ccccc34)cccc2C1=O
30	COCc1[nH]nc2c1C(c1ccc(C)cc1)NC2=O (stereo not drawn)
31	COc1ccc(CN(C)C[C@H]2Oc3ccc(NC(=O)Nc4ccccc4)cc3CC(=O)N([C@H](C)CO)C[C@H]2C)cc1
32	O=c1[nH]c(CN2CCN(c3ccccc3O)CC2)nc2scc(-c3ccccc3Cl)c12

screen / no. | 25 | 26 | 27 | 28 | 29 | 30 | 31 | 32
GSIS activator | 74* | 7 | 214* | 11 | -24 | 50* | -4 | 13
ERp5 block | 4 | -2 | 9 | -10 | -4 | 1 | -8 | -3
PDI inh | -6 | 4 | 0 | 45* | . | . | . | 0
Yeast UUG start | 2 | . | . | -15 | 7 | . | -1 | -13
SMARCA2 activ | -2 | -5 | -2 | -4 | . | -5 | . | -3
NR1D1 modulator | 0 | -5 | -2 | 2 | . | -4 | . | 5

33	O=c1[nH]c(CN2CCN(c3ccc(O)cc3)CC2)nc2scc(-c3ccc(Cl)cc3)c12
34	C[C@@H]1CCCCO[C@@H](CN(C)C(=O)Nc2ccc(F)cc2)[C@H](C)CN([C@H](C)CO)C(=O)c2cc(NC(=O)c3ccncc3)ccc2O1
35	CCOCCCn1c(SCc2ccccc2)nnc1-c1ccncc1
36	O=C(C[C@H]1CC[C@H]2[C@@H](COC[C@H](O)CN2C(=O)C2CCOCC2)O1)NCc1ccncc1
37	CCOC(=O)c1cc2c(nc1N)CCCC2
38	CCOC(=O)c1ccc(-c2ccc3c(c2)CCC3)nc1C
39	Cn1c(=O)c2nc(NCc3ccccc3)cnc2n(C)c1=O
40	Cc1nc2c(=O)n(C)c(=O)n(C)c2nc1Cl

screen / no. | 33 | 34 | 35 | 36 | 37 | 38 | 39 | 40
GSIS activator | 53* | 1 | 78* | 1 | 19 | -26 | 5 | 96*
ERp5 block | 0 | -1 | 1 | -1 | -2 | -3 | -7 | -5
PDI inh | -7 | . | 5 | . | -11 | 3 | 8 | 3
Yeast UUG start | . | -1 | -9 | -7 | . | -12 | -22 | .
SMARCA2 activ | -6 | . | -1 | . | -2 | 7.9* | -1 | -12
NR1D1 modulator | 6 | . | -9 | . | 4 | -3 | 4 | 0

41	COc1ccc(-c2cc(-c3cccs3)nc3sc(C#N)c(N)c23)cc1
42	COCc1cc(C)c2c(N)c(C#N)sc2n1
43	CCc1nc(SCC(=O)Nc2ccccc2C)n[nH]1
44	COc1ccccc1NC(=O)CSc1n[nH]c(Cc2ccccc2)n1
45	C[C@@H]1CN([C@@H](C)CO)C(=O)c2cc(Br)cnc2O[C@H]1CN(C)Cc1cccc(F)c1
46	C[C@H](CO)N1C[C@H](C)[C@@H](CN(C)C(=O)C2CC2)Oc2ncc(Br)cc2C1=O
47	C[C@@H]1CN([C@H](C)CO)C(=O)c2cc(C3=CCCCC3)cnc2O[C@@H]1CN(C)C(=O)CN1CCOCC1
48	C[C@@H]1CN([C@@H](C)CO)C(=O)c2cc(Br)cnc2O[C@H]1CN(C)C(=O)C1CC1
49	C[C@@H]1CN([C@H](C)CO)C(=O)c2cc(C3=CCCCC3)cnc2O[C@H]1CN(C)C(=O)CN1CCOCC1
50	C[C@@H]1CN([C@H](C)CO)C(=O)c2cc(-c3cccc(C#N)c3)cnc2O[C@H]1CN(C)Cc1cncnc1

screen / no. | 41 | 42 | 43 | 44 | 45 | 46 | 47 | 48 | 49 | 50
GSIS activator | 7 | 12 | 1 | 43* | 14 | 13 | 26 | 46*! | 171* | 5
ERp5 block | 1 | . | -1 | -6 | 37*! | . | 2 | 3 | 3 | 75*
PDI inh | -3 | 4 | -1 | 1 | . | . | . | -4 | . | .
Yeast UUG start | . | -17 | -6 | -14 | 5 | -7 | -10 | 13 | -13 | -7
SMARCA2 activ | -2 | 7.9* | -2 | 5 | . | . | . | -3 | . | .
NR1D1 modulator | 0 | -4 | -1 | -9 | . | . | . | -5 | . | .

Single values from the results shown:
SMARCA2 activ result of `COc1ccc(-c2cc(-c3cccs3)nc3sc(C#N)c(N)c23)cc1` → -2
SMARCA2 activ result of `O=c1[nH]c(CN2CCN(c3ccc(O)cc3)CC2)nc2scc(-c3ccc(Cl)cc3)c12` → -6
PDI inh result of `COc1cccc(/C=N/Nc2ncnc3c2[nH]c2ccc(C)cc23)c1OC` → 1
GSIS activator result of `C[C@H]1CN([C@@H](C)CO)C(=O)c2cc(-c3ccccc3)cnc2O[C@H]1CN(C)C(=O)c1ccccn1` → 1

Compound activity: PubChem BioAssay, several laboratories
